Earlier results in PMC8037809, “Biomimetic Chromatographic Studies Combined with the Computational Approach to Investigate the Ability of Triterpenoid Saponins of Plant Origin to Cross the Blood–Brain Barrier” (International Journal of Molecular Sciences, 2021).

Parameters: method as in earlier work
Conditions: experimentally obtained; QSAR training and test sets; cited from earlier work

Row | SMILES | logBB
1 | Cn1cnc2c1c(=O)[nH]c(=O)n2C [83-67-0] | –0.29
2 | COc1ccc2c3c1O[C@H]1C[C@@H](O)C=C[C@@]31CCN(C)C2 [357-70-0] | 0.32
3 | C=CCC1(C(C)C#CCC)C(=O)NC(=O)N(C)C1=O (stereo not shown) [151-83-7] | –0.06
4 | Cc1ccc(-c2nc3ccc(C)cn3c2CC(=O)N(C)C)cc1 [82626-48-0] | 0.12
5 | C=CCc1ccccc1OCC(O)CNC(C)C (stereo not shown) [13655-52-2] | –0.23
6 | CCN(C)C(=O)Oc1cccc([C@H](C)N(C)C)c1 [123441-03-2] | 0.88
7 | Cc1ccnc2c1NC(=O)c1cccnc1N2C1CC1 [129618-40-2] | 0
8 | OCc1ncc2n1-c1ccc(Cl)cc1C(c1ccccc1F)=NC2 [59468-90-5] | –0.07
9 | COc1ccc2c3c1O[C@H]1[C@@H](O)C=C[C@H]4[C@@H](C2)N(C)CC[C@@]341 [76-57-3] | 0.08
10 | CC(=O)Nc1ccc(O)cc1 [103-90-2] | –0.74
11 | Nc1ccn([C@H]2CC[C@@H](CO)O2)c(=O)n1 [7481-89-2] | –1.5
12 | CN/C(=C\[N+](=O)[O-])NCCSCc1ccc(CN(C)C)o1 [66357-35-5] | 0.32
13 | O=C1CN=C(c2ccccc2)c2cc(Cl)ccc2N1 [1088-11-5] | 0.61
